Source: PubChem BioAssay AID2071 (Sanford-Burnham Center for Chemical Genomics, 2009)
The entries are a selection whose mix differs from that of the whole data set. Calls of active or inactive are those of the source. Cut-off read from the data, not from the text of the source: active = inhibition mostly above about 24% (no sharp cut-off); inactive = mostly below about 32%.

Test: NALP1 inflammasome inhibitors in reconstituted yeast, colorimetric, S. cerevisiae, triplicate retest (AID 2071)
Conditions: S. cerevisiae NALP1/ASC/caspase-1 growth, X-gal OD620, 72 h; at 10 µM; hits give high values

| Compound | inhibition |
| --- | --- |
| COc1ccc(OP(C)(=O)Nc2ccc(Br)cc2)cc1 (centres undefined) | inactive: 33.7% |
| CP(=O)(Oc1ccccc1)N1CCOC1=O (centres undefined) | inactive: -26.3% |
| CCc1ccc(OP(C)(=O)Nc2cccnc2)cc1 (centres undefined) | inactive: 8.9% |
| COc1ccccc1OP(C)(=O)Nc1c(C)n(C)n(-c2ccccc2)c1=O (centres undefined) | inactive: 8.1% |
| O=C(OCCCN1CCCC1)C(O)(c1ccccc1)C1CCCCC1 (centres undefined) | inactive: 20.5% |
| CP(=O)(OC12CC3CC(CC(C3)C1)C2)OC12CC3CC(CC(C3)C1)C2 | inactive: -1.3% |
| CCOC(=O)c1ccc(NP(C)(=O)Oc2ccc(Cl)cc2)cc1 (centres undefined) | inactive: 22.4% |
| Cc1nc2ccc3ccccc3c2o1.O=[N+]([O-])c1cc([N+](=O)[O-])c(O)c([N+](=O)[O-])c1 | inactive: 25% |
| CP(=O)(OCCOc1ccccc1)OCCOc1ccccc1 | inactive: 5% |
| CP(=O)(Nc1ccc(Cl)cc1Cl)Oc1ccccc1 (centres undefined) | inactive: -27.4% |
| Cc1cc(C)cc(OP(C)(=O)Nc2cccc(C(F)(F)F)c2)c1 (centres undefined) | inactive: 2.3% |
| COc1ccc(OP(C)(=O)Nc2ccccc2Br)cc1 (centres undefined) | inactive: 33.7% |
| COc1ccccc1OP(C)(=O)Nc1ccc(C)c(C)c1 (centres undefined) | inactive: 0.3% |
| O=[N+]([O-])c1cc([N+](=O)[O-])c(Nc2ccccn2)c([N+](=O)[O-])c1 | inactive: 11% |
| Cc1c(NP(C)(=O)Oc2ccc(C(C)C)cc2)c(=O)n(-c2ccccc2)n1C (centres undefined) | inactive: 3.2% |
| CCc1ccc(OP(C)(=O)O)cc1 | inactive: 7.3% |
| CP(=O)(Nc1ccccn1)Oc1ccccc1 (centres undefined) | inactive: 26.5% |
| COc1ccccc1OP(C)(=O)Nc1ccc(C)cc1C (centres undefined) | inactive: 2.9% |
| CN(C)CCOC(=O)C(O)(c1ccccc1)C1CCCC1 (centres undefined) | inactive: 18.3% |
| COc1ccc(OP(C)(=O)Nc2ccccn2)cc1 (centres undefined) | inactive: 13.5% |
| CCN(CC)CCCOC(=O)C(O)(c1ccccc1)c1ccccc1 | inactive: 11.3% |
| CCOC(=O)c1ccc(NP(C)(=O)Oc2ccccc2)cc1 (centres undefined) | inactive: 15.5% |
| COc1ccccc1OP(C)(=O)Nc1ccc(C)cc1 (centres undefined) | inactive: 11.3% |
| Cc1ccc(NP(C)(=O)Oc2ccccc2)c(C)c1 (centres undefined) | inactive: 7.2% |
| COc1ccccc1OP(C)(=O)Nc1cc(Cl)ccc1C (centres undefined) | inactive: -3.9% |
| COc1ccc(OP(C)(=O)Nc2cccc(F)c2)cc1 (centres undefined) | inactive: -4.3% |
| Cc1cc(C)cc(OP(C)(N)=O)c1 (centres undefined) | inactive: -2.7% |

| Compound | inhibition |
| --- | --- |
| CC(C)(C)c1ccc(OP(C)(=O)Nc2ccc(SC(F)(F)F)cc2)cc1 (centres undefined) | inactive: 12.7% |
| Cc1cccc(C)c1OP(C)(N)=O (centres undefined) | inactive: 8.6% |
| O=[N+]([O-])c1ccc2c(c1)C=Nc1ccccc1O2 | inactive: 8.8% |
| CP(=S)(Nn1cnnc1)Oc1ccccc1 (centres undefined) | inactive: 0.6% |
| COc1ccccc1OP(C)(=O)Nc1ccccc1 (centres undefined) | inactive: 3.6% |
| CP(=O)(Nc1ccccc1Br)Oc1ccccc1 (centres undefined) | inactive: 31.9% |
| CCOP(C)(=S)SCC(=O)NC(C)C(=O)O (centres undefined) | inactive: 16% |
| CCOC(=O)c1ccc(NP(C)(=O)Oc2ccc(OC)cc2)cc1 (centres undefined) | inactive: 14.8% |
| CP(=O)(Nc1ccccn1)Oc1ccc(Cl)cc1 (centres undefined) | inactive: 2.1% |
| Cc1cccc(C)c1OP(C)(=O)Nc1ccc(SC(F)(F)F)cc1 (centres undefined) | inactive: 19.1% |
| CP(=O)(Oc1ccccc1)OC(c1ccccc1)C(F)(F)F (centres undefined) | inactive: -7% |
| CP(=O)(NC(=O)Nc1ccccc1)Oc1ccccc1 (centres undefined) | inactive: -15.4% |
| Cc1cc(C)cc(OP(C)(=O)Nc2ccc(SC(F)(F)F)cc2)c1 (centres undefined) | inactive: 31.3% |
| Cc1nc2ccc3ccccc3c2s1.O=[N+]([O-])c1cc([N+](=O)[O-])c(O)c([N+](=O)[O-])c1 | inactive: 22.4% |
| O=[N+]([O-])c1cc([N+](=O)[O-])c(-n2nnc3ccccc32)c([N+](=O)[O-])c1 | inactive: 8.5% |
| CN1CCCCC1COC(=O)C1(O)c2ccccc2CCc2ccccc21 (centres undefined) | inactive: 17% |
| COc1ccccc1OP(C)(=O)Nc1c(C)cccc1C (centres undefined) | inactive: -14.2% |
| CP(=O)(Nc1ccc(SC(F)(F)F)cc1)Oc1ccccc1 (centres undefined) | inactive: 23.5% |
| CCCOc1ccc(NP(C)(=O)Oc2ccc(Cl)cc2)cc1 (centres undefined) | inactive: -14.2% |
| O=[N+]([O-])c1cc([N+](=O)[O-])c(Nc2nnnn2CCO)c([N+](=O)[O-])c1 | inactive: 6.2% |
| CCOC(=O)C(CC)C1=NC(C)(C)Cc2ccccc21.O=[N+]([O-])c1cc([N+](=O)[O-])c(O)c([N+](=O)[O-])c1 (centres undefined) | inactive: -3.8% |
| CC1=NCCc2c1[nH]c1ccccc21.O=[N+]([O-])c1cc([N+](=O)[O-])c(O)c([N+](=O)[O-])c1 | active: 57.5% |
| CP(=O)(Nc1cccc(Br)c1)Oc1ccccc1 (centres undefined) | inactive: 11.8% |
| Cc1cc(C)cc(OP(C)(=O)Nc2ccccn2)c1 (centres undefined) | inactive: -8.5% |
| Cc1ccc(C)c(NP(C)(=O)Oc2ccccc2)c1 (centres undefined) | inactive: 0.9% |
| Cc1cc(C)cc(OP(C)(=O)Nc2ccc(C)cc2C)c1 (centres undefined) | inactive: 10.3% |
| CCOC(=O)c1ccc(NP(C)(=O)Oc2cc(C)cc(C)c2)cc1 (centres undefined) | inactive: 8% |
